Laboratory results reported in PubChem BioAssay AID1671193 (National Center for Advancing Translational Sciences (NCATS), 2021).
The list shows a part of the results, in another mix than the full data. Inconclusive results are not listed. Some salts and complexes are drawn in separate pieces, as the source files them; their charges need not balance. Calls of active or inactive are those of the source. Calls come from the whole dose curve; as a rule, active = well fitted cell-killing curve with a large enough effect; inconclusive = small, poorly fitted or top-dose-only effect, or effect the other way; inactive = flat fitted curve, though single readings scatter.

Assay: GF-AFC viability counterscreen for inhibitors of alpha-synuclein gene (SNCA) expression; note: nearly all actives have a fitted effect of over 30% in size
Conditions: HEK-293-SNCA-luc viability, GF-AFC fluorescence, 24 h; at 57.1 µM (top of the series) unless noted
Excerpt: Assay Submitter (PI): Daniel R. Scoles Ph.D.
Department of Neurology, University of Utah, Salt Lake City, Utah
Accumulation of alpha-synuclein is a main underlying pathological feature of Parkinson's disease (PD) and alpha-synucleinopathies, for which lowering expression of the alpha-synuclein gene (SNCA) is a potential therapeutic avenue. Using a cell-based luciferase reporter of SNCA expression we performed a quantitative high throughput screen (qHTS) of 155,885 compounds in dose response. The screening assay was generated using genome editing to insert the luciferase gene downstream and in frame of the SNCA gene in HEK-293 cells (1). A viability counterscreen using GF-AFC was used to eliminate cytotoxic and false positive compounds. After in silico analysis (clustering, removal of frequent hitter nuisance chemotypes), inhibitor compounds from the primary screen were selected for follow up and re-tested at 11-doses in the SNCA-luc cells (luciferase and GF-AFC confirmation), and in CMV-luc expressing cell line to flag general transcriptional repressors.
Described herein are the results of the GF-AFC viability counterscreen for SNCA inhibitors; inactivity (no decrease in fluorescence signal, not cytotoxic) is the desired output for this assay.
1. Dansithong, W., Paul, S., Scoles, D. R., Pulst, S. M., and Huynh, D. P. (2015) Generation of SNCA Cell Models Using Zinc Finger Nuclease (ZFN) Technology for Efficient High-Throughput Drug Screening. PLoS ONE 10, e0136930.
SEQUENCE No. (e.g., 1, 2, 3, etc.); […] (e.g., Cells, Incubation, Reagent, etc.); VALUE; DESCRIPTION
1; Cells; 4 uL; Dispense 1500 HEK-293-SNCA-luc cells/well into Greiner 1536-well white / solid bottom tissue culture treated plate. The plate was covered with metal lids with gas-exchange holes.
2; Incubate; 24 hours; Incubate at 37C, 5% CO2, 95% RH.
3; Compounds; 23 nL; Compounds and controls were transferred via a Kalypsys Pin Tool (Wako USA) equipped with a 1536-slotted pin array. The plate was covered with metal lids with gas-exchange holes.
4; Incubate; 24 hours; Incubate at 37C, 5% CO2, 95% RH.
5; Dispense; 1 uL; Dispense Gly-Phe-7-amino-4-trifluoromethylcoumarin (GF-AFC, prepared at 125 uM in PBS) was added. The plate was covered with metal lids with gas-exchange holes.
6; Incubate; 30 min; Incubate at 37C, 5% CO2.
7; Detector; Fluorescence; Measure fluorescence with ViewLux microplate reader (PerkinElmer) equipped with 405/10 excitation and 540/25 emission filters.
8; Dispense; 3 uL; Dispense ONE-Glo ([…]) lucifase detection reagent was added to each well. Plates were covered with metal lids with gas-exchange holes.
9; Incubate; 15 min; Incubate at room temperature.
10; Detector; Luminescence; Measure luminescence with ViewLux microplate reader (PerkinElmer) equipped with clear filters.
NOTES (numbers refer to sequence above)
1; HEK-293-SNCA-luc were cultured and suspended in phenol-red free DMEM (4.5 g/L glucose, 25 mM HEPES, cat #21063 (Thermo)).
3; Compounds were added to the assay plate in an 11-point intra plate dose response, 1:3 titration in DMSO with a final concentration range of […]. Vehicle-only plates, with DMSO being pin-transferred to every well, were inserted at the beginning of screening runs to confirm expected assay performance. Activity was normalized to wells containing medium only (-100% activity, full inhibition) and SNCA-luc cells treated with DMSO vehicle control (0% activity), contained on the same plate as test samples.
10; Signals were analyzed, and dose-response curves were fit using the Hill equation. Compounds in curve classes -1.1, -1.2, -2.1, -2.2 in the SNCA-luc assay were considered active. Compounds were eliminated from further consideration if also active (curve class -1.1, -1.2, -1.3, -1.4, -2.1, -2.2, -2.3, -2.4) in the GF-AFC cytotoxicity assay.

SMILES	activity change, negative = cytotoxicity
C/C1=C2N=C(/C=C3N=C(/C(C)=C4\[N-][C@@](C)([C@@H]5N=C1[C@](C)(CCC(=O)NC[C@@H](C)OP(=O)([O-])O[C@H]1[C@@H](O)[C@@H](n6cnc7cc(C)c(C)cc76)O[C@@H]1CO)[C@H]5CC(N)=O)[C@@](C)(CC(N)=O)[C@@H]4CCC(N)=O)[C@@](C)(CC(N)=O)[C@@H]\3CCC(N)=O)C(C)(C)[C@@H]/2CCC(N)=O.[C-]#N.[Co+3]	inactive: -26.4% [at 23.9 µM]
CCOP(=O)(CC)Oc1ccc([N+](=O)[O-])cc1 (stereo unspecified)	inactive: -20.3%
Cc1cccc([N+](=O)[O-])c1[N+](=O)[O-]	inactive: -19.4%
OCCSCCO	inactive: -18.4% [at 23.9 µM]
C/C1=C2N=C(/C=C3N=C(/C(C)=C4\N=C(C(CC(N)=O)C4(C)CCC(=O)NCC(C)OP(=O)([O-])OC4C(CO)OC(n5cnc6cc(C)c(C)cc65)C4O)C4(C)N=C1C(CCC(N)=O)C4(C)CC(N)=O)C(CCC(N)=O)C\3(C)C)C(CCC(N)=O)C/2(C)CC(N)=O.[C-]#N.[Co] (stereo unspecified)	inactive: -25.4% [at 23.9 µM]
O=[N+]([O-])c1cccc([N+](=O)[O-])c1	inactive: -35.9%
